# Ab-14 light chain CDR variants: yeast mating affinities

Reference: Li et al. 2023, doi:10.1038/s41467-023-39022-2. File: FLAb, binding data.

All variants were tested on one target, the spike HR2 peptide PDVDLGDISGINAS (SARS-CoV-2).

The variants keep the heavy chain, the linker and the frameworks of Ab-14 (scFv order VH, the linker GGGGSGGGGSGGGGS, VL).
VH: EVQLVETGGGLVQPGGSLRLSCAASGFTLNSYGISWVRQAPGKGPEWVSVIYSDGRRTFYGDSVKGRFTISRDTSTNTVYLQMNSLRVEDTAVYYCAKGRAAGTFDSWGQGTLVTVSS
VL: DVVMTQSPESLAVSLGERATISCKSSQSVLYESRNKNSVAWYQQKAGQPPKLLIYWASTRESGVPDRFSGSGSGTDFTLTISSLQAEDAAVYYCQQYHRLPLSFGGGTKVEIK

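Phage display of a naive human antibody library on the peptide gave the parent. This is the validation round: designs drawn from the data on random variants, tested in the same kind of assay. Their group label is 14L_GP_HC (GP: Gaussian process model; HC: hill climbing; a sequence that several methods proposed may carry one label only). In AlphaSeq, yeast of one mating type display the scFv and yeast of the other type display the target. Binding brings cells together so that they mate, and sequencing counts the barcode pairs among the diploids. Scores were corrected for input abundance and mapped to Kd with protein pairs of known affinity run in the same pool. Each pool was mated in six replicate cultures.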

The parent's light chain CDRs are KSSQSVLYESRNKNSVA, WASTRES, QQYHRLPLS; each variant's own CDRs replace them letter for letter. Numbers give log10(Kd / nM), so 0 is 1 nM and 3 is 1 µM. Smaller is tighter. "ND" marks a missing value. The strain was present, yet no cells mated with the target were sequenced in that replicate, which points to weak or no binding. In the paper, a design with two or fewer of six values counts as a poor binder.

For KSFQSWLYESRNKNSVA / GASTREQ / QQYHRLPLS, the assay gave -0.10, 0.02, -0.34, -0.27, 0.06, -0.07 (controls 1 of 18).
For KSSISYLGEDLNKNSVA / EASTRES / QQYHRLPLS, the assay gave 0.46, 0.65, 0.54, 0.55, 0.87, 0.75 (controls 0 of 18).
For KFSQSVLYESRVKNSVA / NAVTRET / QQYHRLPLS, the assay gave -0.14, -0.27, -0.27, -0.29, -0.34, -0.13 (controls 2 of 18).
For IAWQSWLYESRNKNSVA / GASTRES / QQYHRLPLI, the assay gave 1.83, 1.23, 2.24, 1.32, 1.63, 2.14 (controls 1 of 18).
For NFSQSWLYESRNKNSVA / GGNTRES / QQYHRLPLS, the assay gave -0.39, -0.43, -0.03, -0.35, -0.05, 0.09 (controls 1 of 18).
For KLEQSCNYESRNKNSVA / NASTRES / QQYHRLPLS, the assay gave -0.08, -0.27, -0.34, -0.38, -0.17, -0.26 (controls 1 of 18).
For KVSQSFLYESRNKNSVA / GASTRES / QAYHRLPLS, the assay gave -0.09, 0.08, 0.32, -0.18, -0.21, -0.03 (controls 0 of 18).
For KSSQSVLYESRNKNSVA / GASSRES / QQYHRLPLS, the assay gave 0.78, 0.54, 0.58, 0.57, 0.50, 0.83 (controls 2 of 18).
For KLVQSTLYESRQKNSVA / WASTRES / QQYHRLPLS, the assay gave ND, ND, ND, ND, 1.18, ND (controls 0 of 18).
For KVSQSHLYESRMKNSVA / DASTRCS / QQYHRLPLE, the assay gave -0.59, 0.20, -0.41, -0.50, 0.01, 0.37 (controls 0 of 18).
For KVSQSVLYEGRTKNSVA / NASTRES / QQYHRLPLS, the assay gave 0.71, 0.84, 0.79, 0.68, 0.56, 0.86 (controls 2 of 18).
For ASSGGWLYESRNKNSVA / GASTRED / QQYHRLPLS, the assay gave -0.34, -0.46, -0.48, -0.72, -0.44, -0.35 (controls 1 of 18).
For KLQQQTLYESRNKNSVA / WASTREE / QQYHRLPLS, the assay gave 1.74, 1.33, 1.76, ND, 2.29, ND (controls 0 of 18).
For KSSQSVKFESRNKNSVA / DASTREM / QQYHRLPLS, the assay gave 2.67, 1.04, 1.11, 0.89, 0.54, 2.13 (controls 0 of 18).
For KSSIFYLEESRNKNSVA / EASTRES / QQYHRLPLS, the assay gave 0.11, -0.15, -0.37, -0.53, -0.41, -0.22 (controls 0 of 18).
For KSSISGLYESGNKNSVA / EASTRES / QQYHRLPLS, the assay gave 0.29, -0.04, 0.00, 0.04, -0.08, 0.06 (controls 2 of 18).
For KLPNSTLYESRQKNSVA / HASTRES / QQYHRLPLS, the assay gave 0.78, 0.46, 0.83, 0.12, 0.26, 0.60 (controls 0 of 18).
For KLSCVYLYESRNKNSVA / GASTRES / QQYHRLPLS, the assay gave 0.20, 0.17, 0.00, -0.02, -0.23, -0.05 (controls 0 of 18).
For KSSQSWLYESRNKNSVA / HASTRED / QQYHRLPLS, the assay gave 0.64, 0.52, 0.31, 0.69, 0.32, 0.40 (controls 0 of 18).
For KFSQSVDYESRTKNSVA / NASTRES / QQYHRLPLS, the assay gave 1.04, 1.33, 0.94, 1.09, 0.87, 1.89 (controls 0 of 18).
For KSSWSVLHESRNKNSVA / DASTRSS / QQYHRLPLS, the assay gave 0.27, 0.19, 0.30, 0.13, 0.26, 0.13 (controls 1 of 18).
For KSSQSVLMESRNMNSVA / DASTRES / QQYHRLPLS, the assay gave 0.46, 0.31, 0.40, 0.18, 0.41, 0.39 (controls 0 of 18).
For KSLQSVLYESRNFNSVA / HASQRED / QQYHRLPLS, the assay gave 1.01, 1.01, 0.61, 1.20, 0.75, 0.99 (controls 0 of 18).
For KQQQSVLYESRNKNNVA / HASTRED / QQYHRLPLS, the assay gave -0.35, -0.25, -0.44, -0.67, -0.49, -0.18 (controls 0 of 18).
For HLSDSDLYESRNKNSVA / NASTRES / QQYHRLPLN, the assay gave 2.11, 1.34, 2.15, 1.87, 2.53, ND (controls 1 of 18).
For KSSQSDLYESRNFNSVA / GASTRES / QQYHRLPLS, the assay gave 0.33, 0.29, 0.09, 0.07, 0.23, 0.34 (controls 1 of 18).
For KSQGSQEYESRNKNSVA / HASTRED / QQYHRLPLS, the assay gave -0.09, -0.05, 0.07, -0.20, -0.27, 0.12 (controls 1 of 18).
For KYSQAFLYESRNKNSVA / DANTRES / QQYHRLPLS, the assay gave 0.12, -0.14, -0.10, -0.21, -0.03, 0.23 (controls 0 of 18).
For KSSPSYPEESRNKNSVA / EASTRES / QQYHRLPLS, the assay gave 0.77, 0.21, 0.00, 0.22, 0.35, 0.28 (controls 0 of 18).
For HSSPSELYESRNKNSVA / NASTRES / QQYHRLPLS, the assay gave 0.56, 0.52, 0.44, -0.10, 0.09, 0.59 (controls 3 of 18).
For KFSDSVLLESRTKNSVA / NASTRES / QQYHRLPLS, the assay gave 0.02, 0.17, -0.38, -0.52, -0.46, -0.27 (controls 0 of 18).
For KSSFSVLFESRNKNSVA / NASTRES / QQYHRLPLR, the assay gave 1.53, 1.15, 1.24, 1.02, 1.27, 1.21 (controls 1 of 18).
For KSSCSYLYESRNTNSVA / EASTRES / QQYHRLPLS, the assay gave 0.30, 0.24, 0.19, 0.38, 0.24, 0.42 (controls 0 of 18).
For KQSQSVWYESRNKNSVA / DASTRCS / QQYHRLPLS, the assay gave 2.37, 2.23, 1.55, 2.12, 1.95, 1.64 (controls 1 of 18).
For KADQSWLYESRNKNSVA / GASTRES / QQYHRLPLI, the assay gave -0.02, 0.15, -0.01, 0.13, 0.02, 0.58 (controls 0 of 18).
For KSSISYLYESRNKNSVA / EASTREQ / QQYHRLPLM, the assay gave 0.47, 0.20, 0.24, 0.30, 0.33, 0.31 (controls 0 of 18).
For KYYPSYLYESRNKNSVA / QASQRES / QQYHLLPLS, the assay gave 1.23, 1.25, 0.83, 1.02, 1.78, 1.70 (controls 0 of 18).
For KSSISYLYESENKNSVA / SASQRES / QQYHRLPLS, the assay gave 0.13, 0.20, 0.26, -0.08, 0.11, 0.24 (controls 0 of 18).
For KQSQSVLYESVNSNSVA / DASTRES / QQYHRLPLS, the assay gave 0.90, 1.05, ND, 1.15, 1.10, 1.11 (controls 0 of 18).
For KSSSSYLYESRNENSVA / EASTREQ / QQYHRLPLS, the assay gave -0.07, 0.15, 0.14, -0.26, 0.14, 0.13 (controls 0 of 18).
For KSSISYLESSRNKNSVA / EASTRES / QQYHRLPLS, the assay gave 0.64, 0.21, 0.07, 0.02, 0.20, 0.29 (controls 0 of 18).
For KVSQSVLYESRNKNSVA / DASTRES / QQYQRLPLS, the assay gave -0.18, -0.33, -0.38, -0.47, -0.45, -0.31 (controls 0 of 18).
For FSLQSQLYESRNFNSVA / HASTRED / QQYHRLPLS, the assay gave 1.24, 1.00, 0.85, 0.85, 0.87, 0.75 (controls 1 of 18).
For KLRGSTLYESRNKNSVA / LASTRES / QQYHRLPLS, the assay gave 2.19, 1.42, 1.08, 1.02, 1.02, 2.01 (controls 0 of 18).
For KSLQSVLYESRDKNSVA / NASTRED / QQYHRLPLS, the assay gave 0.13, 0.29, -0.01, 0.02, -0.04, 0.34 (controls 1 of 18).
For KQSQSVDYESRNKNSVA / DASTRSS / QQYHRLPLS, the assay gave 0.71, 0.41, 0.32, 0.28, 0.15, 0.68 (controls 1 of 18).
For KSSISYLYESRNENSVA / EASTRER / QQYHRLPLS, the assay gave 0.24, 0.69, 0.38, -0.15, 0.62, 0.76 (controls 0 of 18).
For HFSQSVLYESRTKNSVA / NASTRES / QQYHRLPLS, the assay gave 0.19, 0.12, 0.02, -0.13, -0.18, 0.26 (controls 1 of 18).
For KSSQSVLMEPRNKNSVA / DASTRES / QQYHRLPLS, the assay gave 0.64, 0.08, 0.39, 0.22, 0.17, 0.49 (controls 0 of 18).

Picked from the list: the 7 lowest averages where every replicate gave a value.

ASSGGWLYESRNKNSVA / GASTRED / QQYHRLPLS: -0.34, -0.46, -0.48, -0.72, -0.44, -0.35 (controls 1 of 18).
KQQQSVLYESRNKNNVA / HASTRED / QQYHRLPLS: -0.35, -0.25, -0.44, -0.67, -0.49, -0.18 (controls 0 of 18).
KVSQSVLYESRNKNSVA / DASTRES / QQYQRLPLS: -0.18, -0.33, -0.38, -0.47, -0.45, -0.31 (controls 0 of 18).
KSSIFYLEESRNKNSVA / EASTRES / QQYHRLPLS: 0.11, -0.15, -0.37, -0.53, -0.41, -0.22 (controls 0 of 18).
KLEQSCNYESRNKNSVA / NASTRES / QQYHRLPLS: -0.08, -0.27, -0.34, -0.38, -0.17, -0.26 (controls 1 of 18).
KFSDSVLLESRTKNSVA / NASTRES / QQYHRLPLS: 0.02, 0.17, -0.38, -0.52, -0.46, -0.27 (controls 0 of 18).
KFSQSVLYESRVKNSVA / NAVTRET / QQYHRLPLS: -0.14, -0.27, -0.27, -0.29, -0.34, -0.13 (controls 2 of 18).

A sequence measured in both rounds can read differently, since the two assays cover different ranges. The parent sequence was in this pool as ten entries: three were never detected, three once, and four in most replicates, with averages from 0.34 to 2.37. Empty control strains, which show no peptide, gave a signal in 4% of pairings with all light chain designs; the median was 2.64 and 95% of these signals were weaker than 1.59. No background was subtracted. Also given: how often the same scFv was detected with the empty control strains.